The target in data set [1] is T1, hERG (Homo sapiens, UniProt Q12809). The following applies: read-out: IC50 of IKr channel inhibition (Helson et al., 2012); previously reported; cited from earlier work.
For data set [2], the target named is T1, hERG.
Data set [3] deals with T1, hERG. The conditions noted are these: cited from earlier work.
The target of another data set is IKr channel (hERG) (Homo sapiens, UniProt Q12809). The conditions noted are these: 100 nM, tested twice; 0.1 µM.

Amino acid sequences for entries named in this document (tags omitted). A change or cut given only in a name is not applied to a line headed by its entry.
UniProt Q12809: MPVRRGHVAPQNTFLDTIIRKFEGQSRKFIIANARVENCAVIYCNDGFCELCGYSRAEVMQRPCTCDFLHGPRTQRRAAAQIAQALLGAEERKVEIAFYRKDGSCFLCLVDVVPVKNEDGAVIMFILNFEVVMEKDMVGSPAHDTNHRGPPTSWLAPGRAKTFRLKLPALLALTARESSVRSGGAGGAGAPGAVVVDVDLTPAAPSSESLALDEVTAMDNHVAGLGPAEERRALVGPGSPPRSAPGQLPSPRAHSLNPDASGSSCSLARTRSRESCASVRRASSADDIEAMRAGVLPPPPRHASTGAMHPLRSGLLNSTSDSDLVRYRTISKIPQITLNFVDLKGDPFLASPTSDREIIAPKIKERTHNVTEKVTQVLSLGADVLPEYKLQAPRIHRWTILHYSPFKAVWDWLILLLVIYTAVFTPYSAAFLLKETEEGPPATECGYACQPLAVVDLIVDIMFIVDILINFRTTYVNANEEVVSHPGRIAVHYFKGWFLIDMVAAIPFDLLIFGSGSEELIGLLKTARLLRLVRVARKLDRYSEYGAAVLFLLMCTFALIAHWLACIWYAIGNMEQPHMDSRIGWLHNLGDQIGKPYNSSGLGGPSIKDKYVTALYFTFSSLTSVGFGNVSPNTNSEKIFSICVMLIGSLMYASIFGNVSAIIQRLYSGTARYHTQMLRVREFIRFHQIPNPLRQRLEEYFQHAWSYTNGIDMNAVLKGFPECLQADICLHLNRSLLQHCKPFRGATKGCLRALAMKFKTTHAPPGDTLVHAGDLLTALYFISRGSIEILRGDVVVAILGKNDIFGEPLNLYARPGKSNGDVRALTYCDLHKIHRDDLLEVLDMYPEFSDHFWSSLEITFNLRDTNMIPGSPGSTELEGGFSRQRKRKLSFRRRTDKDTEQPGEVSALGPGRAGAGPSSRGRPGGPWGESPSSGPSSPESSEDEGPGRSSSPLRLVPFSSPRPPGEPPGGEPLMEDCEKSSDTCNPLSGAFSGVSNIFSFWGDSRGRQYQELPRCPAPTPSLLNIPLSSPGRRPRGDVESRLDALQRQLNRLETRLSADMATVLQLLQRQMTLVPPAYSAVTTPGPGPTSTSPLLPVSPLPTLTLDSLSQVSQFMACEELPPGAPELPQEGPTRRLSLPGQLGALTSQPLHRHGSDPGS

The source of these data is patent US12004868B2, “Liposomal mitigation of drug-induced inhibition of the cardiac IKr channel” (Signpath Pharma, Inc., priority 2011, dated 2024).

Several values for one entry are separate records, joined by “and”; a condition that tells them apart may be missing. Equal values may be shown once. Read-outs that look alike come from different tables or passages of the source. Marks after values point to notes of the source that are not given here.

The term IC50 denotes the point on the concentration scale where inhibition reaches its midpoint. For the substance “N-[4-[[1-[2-(6-methyl-2-pyridinyl)ethyl]-4-piperidinyl]carbon-yl]phenyl]methane sulfonamide dihydrochloride anhydrous [E-4031]”, the 50% inhibitory concentration (IC50) at hERG [1] is 56 nM. Besides, at hERG [2], the “Corrected Normalized Current Density” value is recorded as 0.094*, the IC50 was 50 nM and the “Normalized Current Density” value stood at 0.124. Besides, the “hERG blocker potency (in words)” value on hERG [3] is reported as “extremely high potency compound”. Further, the “inhibition of current density” value against IKr channel (hERG) was 67% and 79%.
